pEC50: −log10 of the molar value.
Experiments:
[1] = Human Plasma Protein Binding (Test B); details: fraction unbound (fu)
[2] = Human Liver Microsomal Stability (Test C); format: in vitro ADME; details: human liver microsomes
Method: Human Liver Microsomal Stability (Test C)
The assay was conducted according to the Human Liver Microsome Stability Assay described in pages 170-174 of Wernevik, J. et al., “A Fully Integrated Assay Panel for Early Drug Metabolism and Pharmacokinetics Profiling”, Assay and Drug Development Technologies, 2020, 18(4), 157-179. Data are reported in Table 36 as CLint (μl/min/mg protein). Where the assay was run multiple times for the same compound, the arithmetic mean is reported.

Protein sequences, listed by entry. Tags and fused reporters are not part of them.
UniProt Q9HBX9, whole entry: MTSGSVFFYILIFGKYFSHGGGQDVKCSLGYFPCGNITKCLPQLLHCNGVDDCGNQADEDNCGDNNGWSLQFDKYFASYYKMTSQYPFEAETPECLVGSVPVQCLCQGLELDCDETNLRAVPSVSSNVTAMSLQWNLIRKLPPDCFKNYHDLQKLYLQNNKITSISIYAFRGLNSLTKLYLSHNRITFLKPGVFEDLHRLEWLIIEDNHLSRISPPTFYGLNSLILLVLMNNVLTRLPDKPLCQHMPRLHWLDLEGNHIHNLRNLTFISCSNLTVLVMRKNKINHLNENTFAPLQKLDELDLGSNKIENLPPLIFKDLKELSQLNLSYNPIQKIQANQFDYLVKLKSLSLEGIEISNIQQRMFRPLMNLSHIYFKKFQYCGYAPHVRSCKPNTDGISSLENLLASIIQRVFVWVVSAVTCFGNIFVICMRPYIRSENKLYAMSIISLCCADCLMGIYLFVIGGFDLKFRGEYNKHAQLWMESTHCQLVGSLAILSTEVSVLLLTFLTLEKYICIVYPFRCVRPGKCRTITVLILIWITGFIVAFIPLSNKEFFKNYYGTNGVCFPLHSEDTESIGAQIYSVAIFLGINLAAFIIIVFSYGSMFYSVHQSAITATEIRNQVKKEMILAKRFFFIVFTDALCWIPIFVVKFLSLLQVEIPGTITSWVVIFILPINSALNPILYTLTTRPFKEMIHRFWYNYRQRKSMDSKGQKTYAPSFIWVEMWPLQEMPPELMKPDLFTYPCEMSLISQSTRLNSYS

[3] = Rat Hepatocyte Stability (Test E); format: in vitro ADME; details: rat hepatocytes; geometric mean if run multiple times
Method: Rat Hepatocyte Stability (Test E)
The assay was conducted according to the Rat Hepatocyte Stability Assay described in pages 170-174 of Wernevik, J. et al., “A Fully Integrated Assay Panel for Early Drug Metabolism and Pharmacokinetics Profiling”, Assay and Drug Development Technologies, 2020, 18(4), 157-179. Data are reported in Table 36 as mean Clint(μl/min/10^6 cells). Where the assay was run multiple times for the same compound, the geometric mean is reported.

[4] = Solubility (Test F); details: arithmetic mean if run multiple times
[5] = molecular target: human RXFP1 (Homo sapiens, UniProt Q9HBX9); experiment: RXFP1 Hu cAMP (Test A); format: cell-based; details: for pEC50: read-out: Test A EC50
[6] = Human Hepatocyte Stability (Test D); format: in vitro ADME; details: human hepatocytes; geometric mean if run multiple times

Test D Human Hepatocyte Stability Clint [6] [μL/min/10^6 cells]	Compound	Test B Human Plasma Protein Binding (% free) [1] [% free]	Test C Human Liver Microsomal Stability Clint [2] [µL/min/mg]	Test E Rat Hepatocyte Stability Clint [3] [μL/min/10^6 cells]	Test F Solubility [4] [µM]	Test A Sinf [5] [%]	pEC50 [5]
–	COc1cc(F)c(O[C@H]2CC[C@@](C)(C(=O)O)CC2)cc1C(=O)Nc1ccc(Cl)cc1C(=O)NCC1(C)CCC1	<0.34	5.6	37	0.80	146	6.89
<1	COc1cc(C#N)c(O[C@H]2CC[C@@](C)(C(=O)O)CC2)cc1C(=O)N[C@@H]1[C@H]2CC[C@H](C2)[C@@H]1C(=O)NCC(C)(C)F	20	5	13	770	113	6.62
–	COc1cc(F)c(O[C@H]2CC[C@@](C)(C(=O)O)CC2)cc1C(=O)N[C@@H]1CCC[C@@H]1C(=O)NCC(C)(C)C(F)(F)F	–	<3	9	>1000	99	6.40
–	COc1cc(F)c(-c2cnc(CCC(=O)O)nc2)cc1C(=O)N[C@@H]1[C@H]2CC[C@H](C2)[C@@H]1C(=O)Nc1cccc(S(=O)(=O)C(F)(F)F)c1	4.6	32	17	>1000	101	6.42
–	COc1cc(F)c(O[C@H]2CC[C@@](C)(C(=O)O)CC2)cc1C(=O)Nc1c(C)nsc1C(=O)NCC1(C)CCC1	4.3	18	17	38	–	< 5.03
–	COc1cc(F)c(O[C@H]2CC[C@@](C)(C(=O)O)CC2)cc1C(=O)N[C@H]1CCCCCC[C@H]1C(=O)NCC1(C)CCC1 (relative stereo)	1.7	90	56	570	87	< 5.54
–	COc1cc(F)c(O[C@H]2CC[C@@](C)(C(=O)O)CC2)cc1C(=O)Nc1ccsc1C(=O)NCC1(C)CCC1	<0.30	11	70	160	95	< 5.68

— patent publication US11667602B2, “Compounds and their use” (AstraZeneca AB, priority 2020, dated 2023)
